Assay results: ChEMBL document CHEMBL2034949, “Small Molecule Inhibitors of Regulator of G Protein Signalling (RGS) Proteins” (ACS Med Chem Lett, 2012)

The chains behind the UniProt entries cited, without tags or fusion partners. Where a name states a change or a piece, a line headed by the entry shows the natural chain unless it says otherwise.
UniProt P49841: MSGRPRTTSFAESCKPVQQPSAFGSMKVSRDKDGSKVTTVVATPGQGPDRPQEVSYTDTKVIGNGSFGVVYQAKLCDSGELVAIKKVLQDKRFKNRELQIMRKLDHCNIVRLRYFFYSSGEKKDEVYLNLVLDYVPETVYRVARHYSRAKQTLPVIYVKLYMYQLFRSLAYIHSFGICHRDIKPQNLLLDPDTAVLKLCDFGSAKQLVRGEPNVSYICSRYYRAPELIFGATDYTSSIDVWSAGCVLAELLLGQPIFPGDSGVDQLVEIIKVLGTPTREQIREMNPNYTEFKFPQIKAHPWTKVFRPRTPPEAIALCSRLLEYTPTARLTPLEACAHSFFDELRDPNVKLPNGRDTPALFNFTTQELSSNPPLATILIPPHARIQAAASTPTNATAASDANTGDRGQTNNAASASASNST

Experiments:
[1] = biological target: Glycogen synthase kinase-3 beta (Homo sapiens, UniProt P49841); test: Inhibition of GSK3beta
[2] = Selectivity ratio of IC50 for RGS8 to IC50 RGS4

IC50 [1]: 70 µM
Ratio IC50 [2]: 5810
Structure (SMILES): CCCCn1c(=O)sn(CC)c1=O
